Test results from patent US20110045982A1, “HERBICIDAL COMPOSITION” (NOF CORPORATION, priority 2009, published 2011).

system: Japanese white rabbits; settings: hydrolysate of base compound, 50% in purified water, 0.1 mL instilled, three male rabbits; observed 1, 6, 12 and 24 hr
Experimental: Assuming that the base compound is hydrolyzed in the natural world, the biological reaction of hydrolysate was evaluated by eye irritancy. To be specific, the base compound (10 g) shown in Table 1 was added to 100 mL of water, and the mixture was adjusted to pH 10 with an aqueous sodium hydroxide solution. The mixture was placed in a flask, heated to 80° C., and stirred for 1 hr while adding an aqueous sodium hydroxide solution as appropriate every 10 min to maintain pH 10. The mixture was adjusted to pH 3.5 with an aqueous hydrochloric acid solution, and the mixture was washed 3 times with hexane to remove fatty acid. The solution was neutralized with an aqueous sodium hydroxide solution, evaporated and filtered to remove sodium chloride. The viscous liquid was diluted with purified water to a concentration of 50% and used as an eye irritancy measurement sample.
Using three male Japanese white rabbits per sample, the above-mentioned eye irritancy measurement sample (0.1 mL) was instilled into the unilateral intracapsular conjunctiva of each test animal, and the upper and lower eyelids were gently closed and maintained for about 1 sec. The other eye was used as control without treatment. After instillation, the cornea, iris, conjunctiva and the like were observed 1, 6, 12 and 24 hr later.

Glycerol monocaproic acid ester [Ex. 5] was tested. Which “eye irritancy of hydrolysate” value did it give?
Its value is “no problem”.

Which “eye irritancy of hydrolysate” value does the source give for Glycerol dicaprylic acid ester [Ex. 2] here?
Its value is “no problem”.

With Glycerol monocapric acid ester [Ex. 6] as the substance, how does the “eye irritancy of hydrolysate” value read?
The value was “no problem”.

How did the “eye irritancy of hydrolysate” value turn out when “Glycerol sesquicaprylic acid ester [Ex. 3]” was run?
Its value is “no problem”.

For “Glycerol monocaprylic acid ester [Ex. 4]”, which “eye irritancy of hydrolysate” value is on record?
The value was “no problem”.
